Laboratory results: patent US20060079453A1, “Hla binding peptides and their uses” (priority 2002, published 2006)

Legend:
[1] = target: HLA-DR DRB1*1101 (DR11) (Homo sapiens, UniProt P01903+P01911, A100R/A169T/A87E/I96F/K41T/L162R/M171V/P40S/Q125H/Q178H/Q39Y/Q99D/R42S/S66Y/T262R/V115G/W38E); assay: biochemical; assay type: binding
[2] = target: HLA-A*2902 (Homo sapiens, UniProt P04439, A270S/D101N/D185E/E176V/E277Q/E87Q/F33T/G231S/H175R/I121M/I218V/I322F/K168Q/L300P/L318F/M331R/P208A/P217A/Q86L/T323A/T345S/V100A/V358M); assay: MHC molecular binding / Capture assay, IC50: A*2902
[3] = target: HLA-DR DRB1*0301 (DR3) (Homo sapiens, UniProt P01903+P01911, A100K/A102G/A103R/A169T/F55Y/I96L/K41T/L162R/M171V/P40S/Q125H/Q178H/Q39Y/R42S/S66N/T106N/T262R/W38E/Y61H); assay: biochemical; assay type: binding
[4] = target: HLA-DR DRB4*0101 (DR53) (Homo sapiens, UniProt P01903+P13762, G164S); assay: biochemical; assay type: binding
[5] = target: HLA-DR DRB1*0901 (DR9) (Homo sapiens, UniProt P01903+P01911, A100R/A103E/D57H/D86V/F55Y/F60I/F76Y/I96F/K127E/L162R/M171V/P40D/Q125H/Q99R/R33Q/R42F/S133A/S66N/T210M/V115G/W38K/Y107V/Y59G/Y89S); assay: biochemical; assay type: binding
[6] = target: HLA-DR DRB1*0802 (DR8) (Homo sapiens, UniProt P01903+P01911, A100R/A103L/A169T/F76Y/H45Y/I96F/K41T/L162R/M171V/P40S/Q125H/Q178H/Q39Y/Q99D/R218S/R42G/S66Y/V115G/W38E); assay: biochemical; assay type: binding
[7] = target: HLA-DR DRB1*0701 (DR7) (Homo sapiens, UniProt P01903+P01911, A100R/A102G/A103Q/D57E/D86V/E43K/F76Y/K127E/L162R/M171V/P40G/Q125H/Q99D/R33Q/R42Y/R54Q/S133A/S66F/T210M/V115G/Y107V/Y59L/Y89S); assay: biochemical; assay type: binding; conditions: read-out: DRB1 *0701

CC[C@H](C)[C@H](NC(=O)[C@H](CC(C)C)NC(=O)[C@H](CCCNC(=N)N)NC(=O)[C@@H]1CCCN1C(=O)[C@@H]1CCCN1C(=O)[C@H](C)N)C(=O)N[C@@H](CS)C(=O)N[C@@H](CC(=O)O)C(=O)N[C@@H](CO)C(=O)N[C@@H](CCCNC(=N)N)C(=O)N[C@H](C(=O)N[C@@H](CC(C)C)C(=O)N[C@@H](CCC(=O)O)C(=O)N[C@@H](CCCNC(=N)N)C(=O)N[C@@H](Cc1ccc(O)cc1)C(=O)O)C(C)C
IC50 ([1]; DRB1 *1101): > 1110 µM

CC(C)C[C@H](NC(=O)[C@H](CCC(=O)O)NC(=O)[C@@H](NC(=O)[C@H](C)N)[C@@H](C)O)C(=O)N[C@@H](Cc1c[nH]cn1)C(=O)N1CCC[C@H]1C(=O)N[C@@H](CCC(=O)O)C(=O)N[C@@H](Cc1ccc(O)cc1)C(=O)N[C@@H](Cc1ccc(O)cc1)C(=O)O
IC50 [2]: 6610 nM

CC(C)C[C@H](NC(=O)[C@H](CO)NC(=O)[C@H](CC(N)=O)NC(=O)[C@H](C)NC(=O)[C@H](Cc1ccccc1)NC(=O)[C@@H](NC(=O)[C@H](CO)NC(=O)[C@H](CCCNC(=N)N)NC(=O)[C@H](CC(C)C)NC(=O)[C@@H](N)Cc1ccccc1)C(C)C)C(=O)N[C@H](C(=O)N[C@@H](Cc1ccc(O)cc1)C(=O)NCC(=O)N[C@@H](C)C(=O)N[C@@H](CO)C(=O)O)C(C)C
IC50 [3]: 15.2 µM

CC[C@H](C)[C@H](NC(=O)[C@@H](NC(=O)[C@@H]1CCCN1C(=O)[C@@H](N)Cc1ccccc1)[C@@H](C)O)C(=O)N1CCC[C@H]1C(=O)N[C@@H](CC(C)C)C(=O)N[C@@H](CO)C(=O)N[C@@H](CCCNC(=N)N)C(=O)N[C@@H](CC(C)C)C(=O)N[C@@H](Cc1ccccc1)C(=O)N[C@@H](CC(=O)O)C(=O)N[C@@H](CC(N)=O)C(=O)N[C@@H](C)C(=O)N[C@@H](CO)C(=O)N[C@@H](CC(C)C)C(=O)O
IC50 [3]: 115 µM
IC50 ([1]; DRB1 *1101): 30.7 µM

CC(C)[C@H](NC(=O)[C@H](CCCCN)NC(=O)[C@H](CO)NC(=O)[C@H](Cc1ccc(O)cc1)NC(=O)[C@@H](N)Cc1ccccc1)C(=O)N[C@@H](CCCNC(=N)N)C(=O)N[C@@H](CCCCN)C(=O)N[C@@H](Cc1ccc(O)cc1)C(=O)N[C@@H](CCCNC(=N)N)C(=O)N[C@@H](Cc1ccccc1)C(=O)O
IC50 [2]: 3040 nM

CC[C@H](C)[C@H](NC(=O)[C@H](CCC(=O)O)NC(=O)[C@H](Cc1c[nH]cn1)NC(=O)[C@@H](NC(=O)[C@@H](NC(=O)[C@H](C)NC(=O)[C@H](C)NC(=O)CN)C(C)C)C(C)C)C(=O)N[C@H](C(=O)N[C@@H](CCCNC(=N)N)C(=O)N[C@@H](CO)C(=O)N[C@@H](Cc1ccccc1)C(=O)NCC(=O)N[C@H](C(=O)N[C@@H](CC(C)C)C(=O)O)[C@@H](C)O)C(C)C
IC50 ([4]; DRB4 *0101): 0.089 µM

CC(C)C[C@H](NC(=O)[C@H](C)NC(=O)[C@H](CCCNC(=N)N)NC(=O)[C@H](C)NC(=O)[C@H](C)NC(=O)CNC(=O)CNC(=O)[C@H](CC(C)C)NC(=O)[C@@H]1CCCN1C(=O)[C@H](C)NC(=O)CN)C(=O)N[C@@H](C)C(=O)N[C@@H](Cc1c[nH]cn1)C(=O)NCC(=O)N[C@H](C(=O)O)C(C)C
IC50 ([4]; DRB4 *0101): 3.96 µM

CC(C)C[C@H](NC(=O)[C@@H](NC(=O)[C@@H]1CCCN1C(=O)[C@@H](NC(=O)[C@H](CC(=O)O)NC(=O)[C@@H](NC(=O)[C@@H](N)Cc1c[nH]cn1)[C@@H](C)O)[C@@H](C)O)[C@@H](C)O)C(=O)N[C@@H](Cc1c[nH]cn1)C(=O)N[C@@H](CCC(=O)O)C(=O)N[C@@H](Cc1ccc(O)cc1)C(=O)O
IC50 [2]: 1510 nM

CC(C)C[C@H](NC(=O)CNC(=O)[C@H](CC(N)=O)NC(=O)[C@H](Cc1ccc(O)cc1)NC(=O)[C@@H](NC(=O)[C@H](CC(=O)O)NC(=O)[C@@H](N)CC(C)C)C(C)C)C(=O)N[C@@H](CC(C)C)C(=O)N1CCC[C@H]1C(=O)N1CCC[C@H]1C(=O)N[C@@H](Cc1ccc(O)cc1)C(=O)N[C@@H](C)C(=O)N[C@@H](CO)C(=O)N[C@@H](CS)C(=O)N[C@@H](Cc1c[nH]cn1)C(=O)O
IC50 ([1]; DRB1 *1101): 0.194 µM

CC(C)C[C@H](NC(=O)[C@H](C)NC(=O)[C@H](CC(C)C)NC(=O)[C@@H](N)CC(N)=O)C(=O)N[C@@H](CC(C)C)C(=O)N[C@@H](Cc1ccc(O)cc1)C(=O)NCC(=O)N[C@@H](CCC(=O)O)C(=O)N[C@@H](Cc1ccc(O)cc1)C(=O)O
IC50 ([2]; Binding affinity to A*2902 (expressed as an IC50)): 138 nM

CC(C)C[C@H](NC(=O)[C@H](CCC(N)=O)NC(=O)[C@H](CC(C)C)NC(=O)[C@@H]1CCCN1C(=O)[C@H](CCC(=O)O)NC(=O)[C@H](Cc1c[nH]c2ccccc12)NC(=O)[C@@H]1CCCN1C(=O)[C@@H](N)CCC(N)=O)C(=O)N[C@@H](Cc1c[nH]cn1)C(=O)N[C@H](C(=O)N[C@@H](CC(=O)O)C(=O)N[C@@H](CCCCN)C(=O)N[C@@H](C)C(=O)N[C@H](C(=O)N[C@@H](CO)C(=O)O)C(C)C)C(C)C
IC50 ([5]; DRB1 *0901): 34.8 µM
IC50 [6]: > 63.6 µM
IC50 ([1]; DRB1 *1101): 8.9 µM

CC(C)C[C@H](NC(=O)[C@H](CS)NC(=O)[C@H](Cc1c[nH]cn1)NC(=O)[C@H](C)NC(=O)[C@H](C)NC(=O)[C@@H](NC(=O)[C@H](CC(C)C)NC(=O)[C@@H](NC(=O)[C@H](Cc1c[nH]c2ccccc12)NC(=O)[C@@H](N)CCC(N)=O)C(C)C)[C@@H](C)O)C(=O)N[C@@H](CCCCN)C(=O)N[C@@H](CCCCN)C(=O)N[C@@H](CC(N)=O)C(=O)N[C@@H](CO)C(=O)N[C@@H](CCC(N)=O)C(=O)O
IC50 ([1]; DRB1 *1101): 14.2 µM

CC[C@H](C)[C@H](NC(=O)[C@@H](NC(=O)[C@@H](N)CCCNC(=N)N)[C@@H](C)O)C(=O)N[C@H](C(=O)N[C@@H](C)C(=O)N[C@@H](CC(=O)O)C(=O)N[C@H](C(=O)N[C@@H](Cc1ccccc1)C(=O)N[C@@H](CCCNC(=N)N)C(=O)N[C@@H](CCCCN)C(=O)N[C@@H](CC(C)C)C(=O)N[C@@H](Cc1ccccc1)C(=O)N[C@@H](CCCNC(=N)N)C(=O)N[C@H](C(=O)N[C@@H](Cc1ccc(O)cc1)C(=O)O)C(C)C)[C@@H](C)O)[C@@H](C)O
IC50 ([1]; DRB1 *1101): 0.166 µM

CC(C)C[C@H](NC(=O)[C@H](CC(=O)O)NC(=O)[C@H](C)NC(=O)[C@H](Cc1ccccc1)NC(=O)[C@H](C)NC(=O)[C@H](Cc1ccccc1)NC(=O)[C@H](CC(=O)O)NC(=O)[C@H](Cc1ccc(O)cc1)NC(=O)[C@@H](NC(=O)[C@H](CCC(=O)O)NC(=O)[C@@H](N)CO)C(C)C)C(=O)N[C@H](C(=O)N[C@H](C(=O)N[C@H](C(=O)N[C@@H](Cc1ccc(O)cc1)C(=O)O)C(C)C)C(C)C)[C@@H](C)O
IC50 ([4]; DRB4 *0101): 1.32 µM

CC[C@H](C)[C@H](NC(=O)[C@H](Cc1c[nH]c2ccccc12)NC(=O)[C@@H](NC(=O)[C@@H](NC(=O)[C@H](CO)NC(=O)[C@H](CC(C)C)NC(=O)[C@@H](N)[C@@H](C)O)C(C)C)[C@@H](C)O)C(=O)NCC(=O)N[C@@H](C)C(=O)N[C@@H](C)C(=O)N1CCC[C@H]1C(=O)N[C@@H](CC(C)C)C(=O)N[C@H](C(=O)N[C@@H](CC(C)C)C(=O)N[C@@H](CO)C(=O)O)[C@@H](C)CC
IC50 ([4]; DRB4 *0101): 3.51 µM

CC(C)C[C@H](NC(=O)[C@H](CCCNC(=N)N)NC(=O)[C@@H]1CCCN1C(=O)CNC(=O)[C@H](CCCNC(=N)N)NC(=O)[C@H](CCCNC(=N)N)NC(=O)[C@@H]1CCCN1C(=O)[C@H](CC(C)C)NC(=O)[C@H](C)NC(=O)[C@H](Cc1ccc(O)cc1)NC(=O)[C@@H](NC(=O)CNC(=O)CNC(=O)[C@@H](N)C(C)C)C(C)C)C(=O)NCC(=O)N[C@H](C(=O)O)C(C)C
IC50 [4]: 26.1 µM

ALLKNYGLLYCFRIW
IC50 ([4]; read-out: DRB4 *0101): 1.23 µM

EFAFKDLFVVYRDSI
IC50 ([4]; read-out: DRB4 *0101): 9.07 µM

EYRHYCYSLY
IC50 ([2]; read-out: A*2902 binding affinity (IC50)): 198 nM

HSLFHPEDTGQVFQV
IC50 ([4]; read-out: DRB4 *0101): 11.5 µM

LGFLQRSSNTQTQK
IC50 ([3]; read-out: DRB1 *0301): 26.5 µM

LGFLQRSSNTQTQKL
IC50 ([4]; read-out: DRB4 *0101): 1.04 µM

LREYILDLHPEPTDL
IC50 ([4]; read-out: DRB4 *0101): 2.04 µM

LVNSSQPWEPLQLHV
IC50 ([1]; read-out: DRB1 *1101): > 8.16 µM

QKEDAAVTIYEMLQN
IC50 [7]: 45.5 µM
IC50 ([3]; read-out: DRB1 *0301): > 157 µM
IC50 ([6]; read-out: DRB1 *0802): > 144 µM
IC50 ([1]; read-out: DRB1 *1101): > 408 µM

QLQQFQKEDAAVTLY
IC50 ([3]; read-out: DRB1 *0301): 17.4 µM
IC50 ([6]; read-out: DRB1 *0802): 4.86 µM

REETQQKSNLELLR
IC50 [7]: 51.2 µM
IC50 ([3]; read-out: DRB1 *0301): 91.1 µM

SDSNVYDLLKNLEEG
IC50 [7]: 182 µM
IC50 ([3]; read-out: DRB1 *0301): 55 µM
IC50 ([5]; read-out: DRB1 *0901): > 59.5 µM
IC50 ([6]; read-out: DRB1 *0802): > 33.3 µM

STGWNETIVENLLAN
IC50 [7]: 3.96 µM
IC50 ([3]; read-out: DRB1 *0301): > 157 µM
IC50 ([5]; read-out: DRB1 *0901): > 77.3 µM
IC50 ([6]; read-out: DRB1 *0802): > 144 µM

TVVYREGNPFGICKL
IC50 ([4]; read-out: DRB4 *0101): 16.2 µM

VLERYLLEAKEAENI
IC50 ([1]; read-out: DRB1 *1101): 17.2 µM

VLERYLLEAYEAENI
IC50 ([3]; read-out: DRB1 *0301): 59 µM

VRTLQQLLMQTCTIV
IC50 ([3]; read-out: DRB1 *0301): 32.4 µM

Where two headings read alike, the source gives them in different places.
